Experimental data: ChEMBL document CHEMBL4346746, “Inhibition of 3-phosphoglycerate dehydrogenase (PHGDH) by indole amides abrogates de novo serine synthesis in cancer cells” (Bioorg Med Chem Lett, 2019)

Tested on: not listed separately
Experiment: Permeability of the compound at 10 uM at pH 7.4 by PAMPA
Format: ADME
Conditions: read-out: permeability

In order of rising Papp at 10 µM:
1. Cn1c(C(=O)NC2(c3ccc(C(=O)O)nc3)COC2)cc2c(Cl)c(Cl)ccc21  1.3 ×10⁻⁶ cm/s
2. Cn1c(C(=O)NC2(c3ccc(C(CC(=O)O)c4cccnc4)cc3)COC2)cc2c(Cl)c(Cl)ccc21 (stereo not given)  1.6 ×10⁻⁶ cm/s
3. Cn1c(C(=O)NC2(c3ccc(CC(=O)O)c(F)c3)COC2)cc2c(Cl)c(Cl)ccc21  4.5 ×10⁻⁶ cm/s
4. Cn1c(C(=O)NC2(c3ccc(C(=O)O)cc3)COC2)cc2c(Cl)c(Cl)ccc21  5.2 ×10⁻⁶ cm/s
5. CC(=O)OC(C)OC(=O)C(c1ccc(C2(NC(=O)c3cc4c(Cl)c(Cl)ccc4n3C)COC2)cc1)c1cccnc1 (stereo not given)  11.8 ×10⁻⁶ cm/s
6. Cn1c(C(=O)NC2(c3ccc(CO)cc3)COC2)cc2c(Cl)c(Cl)ccc21  15.4 ×10⁻⁶ cm/s
7. Cn1c(C(=O)NC2(c3ccc([C@@H](O)c4cccnc4)cc3)COC2)cc2c(Cl)c(Cl)ccc21  20.8 ×10⁻⁶ cm/s
8. Cn1c(C(=O)NC2(c3ccc([C@H](O)c4cccnc4)cc3)COC2)cc2c(Cl)c(Cl)ccc21  25.2 ×10⁻⁶ cm/s
9. CONC(=O)Cc1ccc(C2(NC(=O)c3cc4c(Cl)c(Cl)ccc4n3C)COC2)cc1  27.3 ×10⁻⁶ cm/s

Biological target: T1, D-3-phosphoglycerate dehydrogenase (Homo sapiens, UniProt O43175)
T1 sequence (O43175 whole entry): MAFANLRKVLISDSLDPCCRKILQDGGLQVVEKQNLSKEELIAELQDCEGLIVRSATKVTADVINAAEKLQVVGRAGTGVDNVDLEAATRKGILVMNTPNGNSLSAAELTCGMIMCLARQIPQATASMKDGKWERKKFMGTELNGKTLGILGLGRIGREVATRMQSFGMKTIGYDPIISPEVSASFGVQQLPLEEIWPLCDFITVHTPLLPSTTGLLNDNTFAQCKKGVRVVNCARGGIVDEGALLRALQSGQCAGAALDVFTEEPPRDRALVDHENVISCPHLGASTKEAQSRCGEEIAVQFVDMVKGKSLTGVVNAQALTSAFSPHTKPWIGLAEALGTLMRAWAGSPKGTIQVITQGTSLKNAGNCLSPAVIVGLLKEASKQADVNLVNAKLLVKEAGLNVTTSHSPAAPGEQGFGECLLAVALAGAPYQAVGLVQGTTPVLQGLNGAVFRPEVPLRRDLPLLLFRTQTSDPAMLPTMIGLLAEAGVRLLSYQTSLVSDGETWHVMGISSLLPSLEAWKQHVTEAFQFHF
Experiment: Inhibition of PHGDH (unknown origin) using 11 nM of PHGDH and 3-PG as substrate incubated for 20 mins in presence of NAD+, PSAT1, PSPH by diaphorase and resazurin dye based fluorescence assay
Conditions: not given

`Cn1c(C(=O)NC2(c3ccc(CC(=O)O)cc3)COC2)cc2c(Cl)c(Cl)ccc21` gave an IC50 of 30 nM.

Biological target: T1, D-3-phosphoglycerate dehydrogenase
Experiment: Inhibition of PHGDH (unknown origin) using 140 nM of PHGDH and 3-PG as substrate incubated for 20 mins in presence of NAD+, PSAT1, PSPH by diaphorase and resazurin dye based fluorescence assay
Conditions: not given

In order of falling IC50:
1. O=C1NC[C@@H](COc2cc3[nH]c(C(=O)N[C@H](CO)c4ccc(C(=O)O)cc4)cc3cc2Cl)O1  238 nM
2. Cn1c(C(=O)NC2(c3ccc(C(=O)O)cc3)COC2)cc2c(Cl)c(Cl)ccc21  153 nM

Biological target: T1, D-3-phosphoglycerate dehydrogenase
Experiment: Mixed type inhibition of PHGDH (unknown origin) using 3-PG as substrate incubated for 20 mins in presence of , PSAT1, PSPH and varying NAD+ by diaphorase and resazurin dye based fluorescence assay
Conditions: not given

Work on `O=C1NC[C@@H](COc2cc3[nH]c(C(=O)N[C@H](CO)c4ccc(C(=O)O)cc4)cc3cc2Cl)O1` yielded a Ki of 214 nM.

Tested on: not listed separately
Experiment: Efflux ratio of apparent permeability across basolateral to apical over apical to basolateral side in MDCK cells overexpressing MDR1
Format: ADME, cell-based, Canis lupus familiaris
Conditions: dog

Work on `Cn1c(CNC2(c3ccc(C(=O)O)cc3)COC2)cc2c(Cl)c(Cl)ccc21` yielded a Ratio of 1.5.

Tested on: not listed separately
Experiment: Apparent permeability across apical to basolateral side in MDCK cells overexpressing MDR1
Format: ADME, cell-based, Canis lupus familiaris
Conditions: dog

In order of falling Papp:
1. Cn1c(C(=O)NC2(c3ccc(CO)cc3)COC2)cc2c(Cl)c(Cl)ccc21  12.5 ×10⁻⁶ cm/s
2. Cn1c(CNC2(c3ccc(C(=O)O)cc3)COC2)cc2c(Cl)c(Cl)ccc21  2.4 ×10⁻⁶ cm/s
3. CONC(=O)Cc1ccc(C2(NC(=O)c3cc4c(Cl)c(Cl)ccc4n3C)COC2)cc1  0.8 ×10⁻⁶ cm/s
4. Cn1c(C(=O)NC2(c3ccc([C@H](O)c4cccnc4)cc3)COC2)cc2c(Cl)c(Cl)ccc21  0.61 ×10⁻⁶ cm/s
5. Cn1c(C(=O)NC2(c3ccc(C(=O)O)cc3)COC2)cc2c(Cl)c(Cl)ccc21  0.6 ×10⁻⁶ cm/s
6. Cn1c(C(=O)NC2(c3ccc(C(=O)O)c(F)c3)COC2)cc2c(Cl)c(Cl)ccc21  0.5 ×10⁻⁶ cm/s
7. Cn1c(C(=O)NC2(c3ccc([C@@H](O)c4cccnc4)cc3)COC2)cc2c(Cl)c(Cl)ccc21  0.49 ×10⁻⁶ cm/s
8. CC(=O)OC(C)OC(=O)C(c1ccc(C2(NC(=O)c3cc4c(Cl)c(Cl)ccc4n3C)COC2)cc1)c1cccnc1 (stereo not given)  0.42 ×10⁻⁶ cm/s
9. Cn1c(C(=O)NC2(c3ccc(C(=O)O)nc3)COC2)cc2c(Cl)c(Cl)ccc21  0.1 ×10⁻⁶ cm/s
10. COc1cc2c(cc1Cl)cc(C(=O)NC(CO)c1ccc(C(=O)O)cc1)n2C (stereo not given)  0.1 ×10⁻⁶ cm/s

For `Cn1c(C(=O)NC2(c3ccc(CC(=O)NS(C)(=O)=O)cc3)COC2)cc2c(Cl)c(Cl)ccc21`, the Papp was less than 0.2 ×10⁻⁶ cm/s.
With `O=C1NC[C@@H](COc2cc3[nH]c(C(=O)N[C@H](CO)c4ccc(C(=O)O)cc4)cc3cc2Cl)O1` the Papp was less than 0.2 ×10⁻⁶ cm/s.
With `Cn1c(C(=O)NC2(c3ccc(CC(=O)O)cc3)COC2)cc2c(Cl)c(Cl)ccc21` the Papp was less than 0.2 ×10⁻⁶ cm/s.
Work on `Cn1c(C(=O)NC2(c3ccc(C(C(=O)O)c4cccnc4)cc3)COC2)cc2c(Cl)c(Cl)ccc21` (racemic) yielded a Papp of less than 0.2 ×10⁻⁶ cm/s.

Biological target: T1, D-3-phosphoglycerate dehydrogenase
Experiment: Inhibition of PHGDH (unknown origin)
Conditions: not given
Method in brief: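 Human PHGDH activity measured in an enzyme-coupled assay. NADH formed is coupled by diaphorase to resazurin reduction, and the fluorescent resorufin is read. Downstream enzymes PSAT1 and PSPH are added to the mix to prevent 3-PHP feedback inhibition. IC50 is derived from this assay. Some values were obtained with a low PHGDH concentration.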

With `O=C1NC[C@@H](COc2cc3[nH]c(C(=O)N[C@H](CO)c4ccc(C(=O)O)cc4)cc3cc2Cl)O1` the IC50 was 260 nM.

Biological target: T1, D-3-phosphoglycerate dehydrogenase
Experiment: Inhibition of PHGDH (unknown origin) by surface plasmon resonance method
Conditions: not given

`O=C1NC[C@@H](COc2cc3[nH]c(C(=O)N[C@H](CO)c4ccc(C(=O)O)cc4)cc3cc2Cl)O1` showed an IC50 of 238 nM.
